# Apparent affinities of Ab-95 variants for a coronavirus HR2 peptide

Reference: Engelhart et al. 2022, doi:10.1038/s41597-022-01779-4. File: FLAb, binding data.

Binding partner: SARS-CoV-2 spike HR2 peptide, sequence PDVDLGDISGINAS.

Parent: Ab-95, a human scFv built as VH, a (GGGGS)3 linker, VL. Only the CDRs of the light chain vary.
VH: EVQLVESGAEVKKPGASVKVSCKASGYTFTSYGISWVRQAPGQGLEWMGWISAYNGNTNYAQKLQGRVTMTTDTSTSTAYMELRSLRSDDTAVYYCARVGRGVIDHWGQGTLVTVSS
VL: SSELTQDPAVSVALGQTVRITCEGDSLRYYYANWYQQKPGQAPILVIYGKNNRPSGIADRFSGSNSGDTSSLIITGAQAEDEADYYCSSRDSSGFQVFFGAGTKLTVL

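Variants in AAYL52 differ from the parent at up to three CDR positions; double and triple changes were sampled at random. AlphaSeq pools MATa yeast showing the antibodies with MATalpha yeast showing the peptide. Binding brings cells together so that they mate, and sequencing counts the barcode pairs among the diploids. Read counts were normalised to the haploid input and turned into Kd by a linear fit to BCL2-family pairs of known affinity, for each replicate. There are three technical replicates.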

Variants are written as CDR1, CDR2 and CDR3 of the light chain (limits as in the source). Parent: EGDSLRYYYAN, GKNNRPS, SSRDSSGFQVF. The read-out is the apparent dissociation constant on a log10 scale (nM): the lower, the stronger. "n.d." marks a missing value. The strain was present, yet no cells mated with the target were sequenced in that replicate, which points to weak or no binding. For reference, the parent read 2.31 as the reference entry and 2.25 as a member of this library.

| CDR-L1 | CDR-L2 | CDR-L3 | log10 Kd (nM) by replicate | signal with controls |
|---|---|---|---|---|
| EGDSLRYYEAN | GKNNRPW | SSRDSSGAQVF | 1.64 / 1.63 / 1.17 | 5/9 (4.51) |
| EGDSLHYYYAN | GKNCRPS | SSRKSSGFQVF | n.d. / n.d. / 3.55 | 3/9 (3.30) |
| EGDSLKYYKAN | GKNNSPS | SSRDSSGFQVF | n.d. / n.d. / n.d. | 1/9 (3.52) |
| EGDALRYYYAN | GKNNRPS | SSSDSSNFQVF | 2.02 / 2.32 / 1.75 | 2/9 (3.31) |
| EGDSLRYYYAN | GKNSRPS | CSRISSGFQVF | n.d. / n.d. / n.d. | 0/9 |
| EGDSLRYYYAN | GKNNRPN | SSRDSSVFMVF | 3.05 / 2.79 / 3.02 | 3/9 (4.48) |
| EGDSYRYYYAN | GKNNFPS | SSRDCSGFQVF | 3.57 / 3.68 / n.d. | 4/9 (3.95) |
| EGDSLRYYYAN | GYNNRPS | SSRDSSGFQVF | 2.71 / 3.25 / 2.76 | 7/9 (4.17) |
| EGDSSRYYYAN | GKNNRPR | SSRDSSGRQVF | 2.95 / 2.52 / 3.25 | 3/9 (3.17) |
| EGDSLRYYYRN | GKNNRPS | SSKVSSGFQVF | 3.45 / 3.76 / n.d. | 4/9 (3.39) |
| EGDSKRYYYAN | GKNNRPS | SERDSSGFQVF | 3.49 / 3.17 / 2.27 | 6/9 (4.42) |
| EGGSLRYYYAK | GKNNKPS | SSRDSSGFQVF | 4.79 / 4.15 / 3.71 | 4/9 (3.36) |
| EGDSLRYYYAK | GKNQRPS | SSRDSSGFQVF | n.d. / n.d. / 3.65 | 0/9 |
| EGDTLRYYYAN | GKNNRPS | ASKDSSGFQVF | n.d. / n.d. / 4.28 | 4/9 (3.84) |
| EGDSLRYYYAN | GKNNRPS | STRDSMGFQVF | n.d. / 3.50 / 2.27 | 3/9 (3.52) |
| EGDSLCYYYAN | GKNNRPS | SSRDSHGFQVI | 3.34 / 3.52 / 2.19 | 2/9 (4.67) |
| WGDSLRYYYAN | GKNNRPS | SSRSSSGKQVF | 2.87 / 3.60 / 3.32 | 7/9 (3.94) |
| EGCSLRYYYAN | GKNCTPS | SSRDSSGFQVF | n.d. / 3.05 / 3.91 | 4/9 (3.91) |
| EGDSLRYYYAN | GKNVRPS | SFRDSSGFLVF | 4.11 / 4.70 / 4.10 | 0/9 |
| EGDSLRYYYCN | GKNFRPS | SSRYSSGFQVF | n.d. / 4.01 / n.d. | 3/9 (3.70) |
| EGDMLRYYYAN | GKNNRPK | PSRDSSGFQVF | 4.51 / n.d. / n.d. | 2/9 (3.53) |
| EGDHLRYYYAN | GKNNYPS | SSLDSSGFQVF | n.d. / n.d. / n.d. | 0/9 |
| EWDSLRSYYAN | GKNNRPS | SSRDSSGFFVF | 4.18 / n.d. / n.d. | 4/9 (4.12) |
| EYDCLRYYYAN | GKCNRPS | SSRDSSGFQVF | 3.89 / 4.95 / n.d. | 5/9 (3.99) |
| EGDSLRYYYAN | TKNERPS | SSRDSSGFQVF | n.d. / n.d. / n.d. | 0/9 |
| EGDSLRYAYYN | GKNNRPS | SIRDSSGFQVF | 3.04 / 3.61 / 3.68 | 4/9 (4.28) |
| EGDSLHYYPYN | GKNNRPS | SSRDSSGFQVF | 3.02 / 2.84 / 3.48 | 2/9 (4.40) |
| EGDSLRYYMAN | GKENRNS | SSRDSSGFQVF | 3.33 / 2.57 / 2.23 | 2/9 (4.82) |
| HSDSLRYYYAN | VKNNRPS | SSRDSSGFQVF | 4.77 / 6.21 / n.d. | 5/9 (4.03) |
| EGDVLRYYYCN | GKNNRPS | SSRDSSGFQVF | 3.49 / 3.62 / 4.13 | 1/9 (4.40) |
| EGDSLRYYYAN | GKNNIIS | SSRDESGFQVF | 3.20 / 3.04 / n.d. | 0/9 |
| AADSLRYYYAN | GKNNRPS | SSRDFSGFQVF | n.d. / n.d. / n.d. | 2/9 (3.58) |
| EGDVLRYYYAN | GKNLRPS | SSRDSSGFQVH | n.d. / n.d. / n.d. | 0/9 |
| EGNSLRYYYAN | GKWNRPS | SIRDSSGFQVF | n.d. / n.d. / n.d. | 0/9 |
| EGDSLRYYYLY | GKNNRPS | SSRDSSGFQVF | n.d. / 4.02 / n.d. | 5/9 (3.60) |
| EGDSLRLYYAN | GKINRPS | SSRISSGFQVF | 3.65 / n.d. / 4.19 | 3/9 (3.45) |
| EGDSLRYYYAN | GKNNRHS | SSRDSSGAQNF | 2.81 / 2.95 / 3.48 | 2/9 (3.93) |
| EGDSLRYYYAN | GKNNRPS | SHPDSSGFIVF | n.d. / n.d. / n.d. | 2/9 (4.41) |
| EGDSLRYYYAN | GKNNRPS | STRDGSGFQVK | n.d. / n.d. / 3.10 | 2/9 (4.35) |
| EGDSLRYIYAN | GKNNRPH | SSRDQSGFQVF | 2.21 / 2.08 / 1.96 | 2/9 (4.13) |
| RGDSLRQYYAN | GKDNRPS | SSRDSSGFQVF | 2.05 / 1.57 / 1.13 | 0/9 |
| EGDCLRYYYAN | GKNNRPS | SSCDSSGFHVF | 4.44 / 3.99 / n.d. | 6/9 (3.77) |

The opening 6 entries, copied out:

| CDR-L1 | CDR-L2 | CDR-L3 | log10 Kd (nM) by replicate | signal with controls |
|---|---|---|---|---|
| EGDSLRYYEAN | GKNNRPW | SSRDSSGAQVF | 1.64 / 1.63 / 1.17 | 5/9 (4.51) |
| EGDSLHYYYAN | GKNCRPS | SSRKSSGFQVF | n.d. / n.d. / 3.55 | 3/9 (3.30) |
| EGDSLKYYKAN | GKNNSPS | SSRDSSGFQVF | n.d. / n.d. / n.d. | 1/9 (3.52) |
| EGDALRYYYAN | GKNNRPS | SSSDSSNFQVF | 2.02 / 2.32 / 1.75 | 2/9 (3.31) |
| EGDSLRYYYAN | GKNSRPS | CSRISSGFQVF | n.d. / n.d. / n.d. | 0/9 |
| EGDSLRYYYAN | GKNNRPN | SSRDSSVFMVF | 3.05 / 2.79 / 3.02 | 3/9 (4.48) |

As a blank, each scFv also met three strains without target: over library AAYL52, 28% of these pairings were detected, typically at 3.91 and seldom below 2.90. For each scFv, signals with the empty controls are counted beside the result, with their mean in brackets.